From PubChem BioAssay (NCI)
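96-well plates; 48 h exposure; 5 concentrations. Endpoints by linear interpolation between flanking doses. Not reached: highest tested concentration assigned. GI50 marks 50% less growth. TGI marks complete inhibition of growth.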

Experiments:
Test in all cases: NCI-60 cell line screen, 48 h
[1] = test system: 786-0 renal
[2] = test system: A549 NSCLC
[3] = test system: ACHN renal
[4] = test system: BT-549 breast
[5] = test system: CAKI-1 renal
[6] = test system: CCRF-CEM leukemia
[7] = test system: COLO 205 colon
[8] = test system: DU-145 prostate
[9] = test system: EKVX NSCLC
[10] = test system: HCT-116 colon
[11] = test system: HCT-15 colon
[12] = test system: HL-60(TB) leukemia
[13] = test system: HOP-62 NSCLC
[14] = test system: HS 578T breast
[15] = test system: HT29 colon
[16] = test system: KM12 colon
[17] = test system: LOX IMVI melanoma
[18] = test system: M14 melanoma
[19] = test system: MALME-3M melanoma
[20] = test system: MCF7 breast
[21] = test system: MDA-MB-435
[22] = test system: MDA-N
[23] = test system: MOLT-4 leukemia
[24] = test system: NCI-H226 lung
[25] = test system: NCI-H23 lung
[26] = test system: NCI-H522 lung
[27] = test system: NCI/ADR-RES ovarian
[28] = test system: OVCAR-3 ovarian
[29] = test system: OVCAR-4 ovarian
[30] = test system: OVCAR-5 ovarian
[31] = test system: OVCAR-8 ovarian
[32] = test system: PC-3 prostate
[33] = test system: RPMI-8226 leukemia
[34] = test system: RXF 393 renal
[35] = test system: SF-268 CNS
[36] = test system: SF-295 CNS
[37] = test system: SF-539 CNS
[38] = test system: SK-MEL-2 melanoma
[39] = test system: SK-MEL-28 melanoma
[40] = test system: SK-MEL-5 melanoma
[41] = test system: SK-OV-3 ovarian
[42] = test system: SN12C renal
[43] = test system: SNB-19 CNS
[44] = test system: SNB-75 CNS
[45] = test system: SR leukemia
[46] = test system: SW-620 colon
[47] = test system: T-47D breast
[48] = test system: TK-10 renal
[49] = test system: U251 CNS
[50] = test system: UACC-257 melanoma
[51] = test system: UACC-62 melanoma
[52] = test system: UO-31 renal

O=C(CCN1CCCC(O)C1COC(=O)C(O)(c1ccccc1)c1ccccc1)NCc1ccccc1 (stereo not drawn)
TGI [1]: 84.8 µM | TGI [2]: > 100 µM | TGI [3]: > 100 µM | TGI [4]: 50 µM | TGI [5]: > 100 µM | TGI [6]: 71.8 µM | TGI [7]: 33.8 µM | TGI [8]: > 100 µM | TGI [9]: > 100 µM | TGI [10]: 47 µM | TGI [11]: > 100 µM | TGI [12]: 32.9 µM | TGI [13]: 36 µM | TGI [14]: 59 µM | TGI [15]: 43.2 µM | TGI [16]: 85.9 µM | TGI [17]: 30.4 µM | TGI [18]: 45.8 µM | TGI [19]: 31.8 µM | TGI [20]: > 100 µM | TGI [21]: > 100 µM | TGI [22]: > 100 µM | TGI [23]: 65.2 µM | TGI [24]: > 100 µM | TGI [25]: > 100 µM | TGI [26]: 29.7 µM | TGI [27]: > 100 µM | TGI [28]: > 100 µM | TGI [29]: > 100 µM | TGI [30]: > 100 µM | TGI [31]: > 100 µM | TGI [32]: 67.2 µM | TGI [33]: 41.5 µM | TGI [34]: 30.5 µM | TGI [35]: 64.7 µM | TGI [36]: 39.1 µM | TGI [37]: 34.4 µM | TGI [38]: 29.4 µM | TGI [39]: 30.7 µM | TGI [40]: 29.3 µM | TGI [41]: 73.7 µM | TGI [42]: > 100 µM | TGI [43]: 99.6 µM | TGI [44]: 84 µM | TGI [45]: 42.4 µM | TGI [46]: > 100 µM | TGI [47]: 79.6 µM | TGI [48]: > 100 µM | TGI [49]: > 100 µM | TGI [50]: 28.4 µM | TGI [51]: 60.7 µM | TGI [52]: 49.4 µM

COc1ccc(O)c2c(=O)c3c(OC)cc4c(c3oc12)[C@@H]1C=CO[C@@H]1O4
GI50 [33]: 6.44 µM
